Data reported in ChEMBL document CHEMBL1125313, “Analogs of Ac-CCK-7 incorporating dipeptide mimics in place of Met28-Gly29” (J Med Chem, 1992).

Test: Dose which caused 50% inhibition of the control intake was determined by log-probit analysis after intraperitoneal administration (CCK-8 receptor)
Settings: Rattus norvegicus

- ED50: 32 µmol/kg
Structure (SMILES): CSCC[C@H](NC(=O)[C@H](Cc1c[nH]c2ccccc12)NC(=O)CCCCNC(=O)[C@H](Cc1ccc(S(=O)(=O)O)cc1)NC(=O)O)C(=O)N[C@@H](CC(=O)O)C(=O)N[C@@H](Cc1ccccc1)C(N)=O
